Earlier results in patent US4079139A, “Flavone derivatives” (priority 1974, dated 1978).
Read-outs that look alike come from different tables or passages of the source.

Tested on: toxicity of sodium Pentobarbital
Conditions: cited from earlier work

SMILES | effect on the toxicity of the barbiturate (mouse, in vivo) | effect on the toxicity of the barbiturate (background statement, in words)
CN1[C@@H](CC(=O)c2ccccc2)CCC[C@H]1C[C@H](O)c1ccccc1 [lobeline] | raise the same | 
O=C1C[C@@H]2OCC=C3CN4CC[C@]56c7ccccc7N1[C@H]5[C@H]2[C@H]3C[C@H]46 [strychnine] |  | do not modify the toxicity of the barbiturate
